Test results published in patent US20120121679A1, “VIRICIDAL AND MICROBICIDAL COMPOSITIONS AND USES THEREOF” (University of Georgia Research Foundation, Inc., priority 2009, published 2012).

Tests used:
yeast species = test: Effect of levulinic acids plus SDS at 21° C. on various yeast species; details: for Yeast counts at 0 min: 0 min (delayed by 5 to 10 seconds)
mold species = test: Effect of levulinic acids plus SDS at 21° C. on various mold species; details: for Mold counts at 0 min: 0 min (delayed by 5 to 10 seconds)
[1] = Debaryomyces hansenii, inoculum […] 10^7 CFU/ml
[2] = Geotrichum candidum, inoculum […] 10^7 CFU/ml
[3] = Saccharomyces cerevisiae, inoculum […] 10^7 CFU/ml
[4] = Zygosaccharomyces bailii, inoculum […] 10^7 CFU/ml
[5] = Candida magnoliae, inoculum […] 10^8 CFU/ml
[6] = Mucor hiemalis, inoculum […] 10^7 CFU/ml
[7] = Penicillium expansum, inoculum […] 10^7 CFU/ml
[8] = Penicillium pubeseus, inoculum 6.9 × 10^7 CFU/ml

SMILES	Yeast counts at 0 min (yeast species; [1])	Yeast counts at 1 min (yeast species; [1])	Yeast counts at 10 min (yeast species; [1])	Yeast counts at 0 min (yeast species; [2])	Yeast counts at 1 min (yeast species; [2])	Yeast counts at 10 min (yeast species; [2])	Yeast counts at 0 min (yeast species; [3])	Yeast counts at 1 min (yeast species; [3])	Yeast counts at 10 min (yeast species; [3])	Yeast counts at 0 min (yeast species; [4])	Yeast counts at 1 min (yeast species; [4])	Yeast counts at 10 min (yeast species; [4])	Yeast counts at 0 min (yeast species; [5])	Yeast counts at 1 min (yeast species; [5])	Yeast counts at 10 min (yeast species; [5])	Mold counts at 0 min (mold species; [6])	Mold counts at 1 min (mold species; [6])	Mold counts at 2 min (mold species; [6])	Mold counts at 5 min (mold species; [6])	Mold counts at 10 min (mold species; [6])	further results
CC(=O)CCC(=O)O [2.0% levulinic acid, levulinic acid]	4.9 log CFU/ml	4.8 log CFU/ml	4.4 log CFU/ml	4.6 log CFU/ml	4.4 log CFU/ml	4.1 log CFU/ml	5.4 log CFU/ml	5.3 log CFU/ml	5.3 log CFU/ml	5.4 log CFU/ml	5.4 log CFU/ml	5.4 log CFU/ml	–	–	–	–	–	–	–	–	–
CC(=O)CCC(=O)O [2.0% levulinic acids]	–	–	–	–	–	–	–	–	–	–	–	–	6.0 log CFU/ml	5.9 log CFU/ml	6.0 log CFU/ml	–	–	–	–	–	–
CCCCCCCCCCCCOS(=O)(=O)[O-].[Na+] [2.0% SDS]	–	–	–	–	–	–	–	–	–	–	–	–	–	–	–	6.0 log CFU/ml	5.8 log CFU/ml	5.8 log CFU/ml	6.0 log CFU/ml	5.9 log CFU/ml	Mold counts at 20 min (mold species; [6]): 5.8 log CFU/ml; Mold counts at 30 min (mold species; [6]): 5.8 log CFU/ml; Mold counts at 60 min (mold species; [6]): 5.4 log CFU/ml; Mold counts at 0 min (mold species; [7]): 4.2 log CFU/ml; Mold counts at 1 min (mold species; [7]): 4.1 log CFU/ml; Mold counts at 2 min (mold species; [7]): 3.8 log CFU/ml; Mold counts at 5 min (mold species; [7]): 3.4 log CFU/ml; Mold counts at 10 min (mold species; [7]): 3.5 log CFU/ml; Mold counts at 20 min (mold species; [7]): 3.5 log CFU/ml; Mold counts at 30 min (mold species; [7]): 3.5 log CFU/ml; Mold counts at 60 min (mold species; [7]): 3.6 log CFU/ml; Mold counts at 0 min (mold species; [8]): 4.4 log CFU/ml; Mold counts at 1 min (mold species; [8]): 4.3 log CFU/ml; Mold counts at 2 min (mold species; [8]): 4.4 log CFU/ml; Mold counts at 5 min (mold species; [8]): 4.4 log CFU/ml; Mold counts at 10 min (mold species; [8]): 4.5 log CFU/ml; Mold counts at 20 min (mold species; [8]): 4.5 log CFU/ml; Mold counts at 30 min (mold species; [8]): 4.4 log CFU/ml; Mold counts at 60 min (mold species; [8]): 4.4 log CFU/ml
CC(=O)CCC(=O)O [3.0% levulinic acids]	–	–	–	–	–	–	–	–	–	–	–	–	–	–	–	6.1 log CFU/ml	6.2 log CFU/ml	6.2 log CFU/ml	6.0 log CFU/ml	5.8 log CFU/ml	Mold counts at 20 min (mold species; [6]): 5.1 log CFU/ml; Mold counts at 30 min (mold species; [6]): 4.8 log CFU/ml; Mold counts at 60 min (mold species; [6]): 4.1 log CFU/ml; Mold counts at 0 min (mold species; [7]): 4.3 log CFU/ml; Mold counts at 1 min (mold species; [7]): 4.4 log CFU/ml; Mold counts at 2 min (mold species; [7]): 4.2 log CFU/ml; Mold counts at 5 min (mold species; [7]): 4.0 log CFU/ml; Mold counts at 10 min (mold species; [7]): 3.7 log CFU/ml; Mold counts at 20 min (mold species; [7]): 3.3 log CFU/ml; Mold counts at 30 min (mold species; [7]): 3.3 log CFU/ml; Mold counts at 60 min (mold species; [7]): 2.4 log CFU/ml
CC(=O)CCC(=O)O [3.0% levulinic acid, levulinic acid]	–	–	–	–	–	–	–	–	–	–	–	–	–	–	–	–	–	–	–	–	Mold counts at 0 min (mold species; [8]): 5.2 log CFU/ml; Mold counts at 1 min (mold species; [8]): 4.9 log CFU/ml; Mold counts at 2 min (mold species; [8]): 4.8 log CFU/ml; Mold counts at 5 min (mold species; [8]): 5.2 log CFU/ml; Mold counts at 10 min (mold species; [8]): 4.0 log CFU/ml; Mold counts at 20 min (mold species; [8]): 3.2 log CFU/ml; Mold counts at 30 min (mold species; [8]): 2.7 log CFU/ml; Mold counts at 60 min (mold species; [8]): 1.7 log CFU/ml
CCCCCCCCCCCCOS(=O)(=O)[O-].[Na+] [1.0% SDS]	4.5 log CFU/ml	4.5 log CFU/ml	4.4 log CFU/ml	3.6 log CFU/ml	3.8 log CFU/ml	3.7 log CFU/ml	2.7 log CFU/ml	2.4 log CFU/ml	2.8 log CFU/ml	4.6 log CFU/ml	4.7 log CFU/ml	4.6 log CFU/ml	3.5 log CFU/ml	3.5 log CFU/ml	3.2 log CFU/ml	–	–	–	–	–	–
